Binding of CDR-mutated scFvs to a peptide of the spike HR2 region

All variants were tested on one target, the spike HR2 peptide PDVDLGDISGINAS (SARS-CoV-2).

Each scFv is VH, a 15-residue (Gly4Ser)3 linker, VL, as in the parent Ab-14, and differs from it in the CDRs of the heavy chain only.
VH: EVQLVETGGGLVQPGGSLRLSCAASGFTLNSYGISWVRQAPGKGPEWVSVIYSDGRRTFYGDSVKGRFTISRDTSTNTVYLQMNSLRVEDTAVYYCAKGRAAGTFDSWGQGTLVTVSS
VL: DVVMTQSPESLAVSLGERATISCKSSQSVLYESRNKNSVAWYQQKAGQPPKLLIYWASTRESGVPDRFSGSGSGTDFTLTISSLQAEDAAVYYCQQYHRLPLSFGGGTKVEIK

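The parent was found by panning a naive human phage display library on the peptide. The library (AAYL49) carries one to three amino acid substitutions per variant, with no insertions or deletions. Affinity was read by AlphaSeq, a pooled yeast mating assay with surface-displayed partners. After mating in shaken culture at 30 °C for 16 h, diploids were selected and their barcode pairs sequenced. The ratio of observed to expected reads was calibrated, replicate by replicate, on BCL2-family standards whose Kd was known from biolayer interferometry. Each pool was mated in three replicate cultures.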

Variants are written as CDR1, CDR2 and CDR3 of the heavy chain (limits as in the source). Parent: GFTLNSYGIS, VIYSDGRRTFYGDSVK, GRAAGTFDS. The read-out is the apparent dissociation constant on a log10 scale (nM): the lower, the stronger. The mean shown is taken over the replicates in which the pair was detected. An entry "nd" has no value in the source: the pair was not observed among the diploids in that replicate. This suggests poor binding but is not conclusive.

GFTLNSYGIS | VIYSDGRRCFQGDSVK | GKAAGTFDS: nd, nd, nd (controls 1 of 9).
GFTLNSYGIS | VIYSDGRRTFYGDSMK | GRAAGTFDG: 4.99, 4.11, nd (mean 4.55; controls 5 of 9).
YFTLNSLGIF | VIYSDGRRTFYGDSVK | GRAAGTFDS: nd, 3.20, nd (controls 2 of 9).
GSTLNSYGIM | VIYSFGRRTFYGDSVK | GRAAGTFDS: nd, nd, nd (controls 0 of 9).
GHTLNSYGIS | VIYSDGRRTFYGDSVK | TTAAGTFDS: nd, nd, nd (controls 0 of 9).
GFTLNIYGIS | VIYSDGRRTFYGDSVK | GRAAPTFDE: nd, 5.26, nd (controls 2 of 9).
GFTLNSYGIS | VWYSDGRRTFYGDTVK | GRAAGTFDS: nd, nd, nd (controls 0 of 9).
GFTLNSYGIS | RIYSPGRRTFYGDSVK | GCAAGTFDS: nd, nd, nd (controls 0 of 9).
GFTLNSYGIS | VIYSDRRRRFYGDSVK | GRAAITFDS: nd, 3.61, nd (controls 1 of 9).
GFTLNSYGIS | VIYEDGRRTFYGDSVK | GRAAMTFDS: nd, nd, 5.96 (controls 3 of 9).
GFTLNSYGIL | VIYSDGRRTIYGDSVK | GCAAGTFDS: nd, 3.14, nd (controls 0 of 9).
GFPLNSYGIS | VIYCDGRRFFYGDSVK | GRAAGTFDS: nd, 4.25, nd (controls 2 of 9).
HFTLNSYGIS | WIYSDGRRTFYGDSVK | QRAAGTFDS: 4.33, nd, nd (controls 0 of 9).
GFTLNSYGIS | VIYSDGRRTFYGASVK | GRAAGMQDS: nd, nd, nd (controls 0 of 9).
GFTLGSYGIS | VTYSDGRRTSYGDSVK | GRAAGTFDS: nd, nd, nd (controls 2 of 9).
GFVLNSKGIS | VIYSDGGRTFYGDSVK | GRAAGTFDS: nd, nd, 5.21 (controls 4 of 9).
GFTLNMYGIS | VIYSDGRRTFYGDSVK | GRHAWTFDS: 0.38, 0.80, 0.53 (mean 0.57; controls 0 of 9).
GFTLNSYGIS | VIYSHMRRTFYGDSSK | GRAAGTFDS: nd, nd, nd (controls 0 of 9).
GFTLNSYAIS | VIYSDGRRTFYGDSSK | GRAHGTFDS: nd, nd, nd (controls 0 of 9).
GFTLNSYGIS | VDWSDGRRTFYGDSVK | GRAMGTFDS: nd, nd, nd (controls 2 of 9).
FFTLNSYGIS | VIYSDGRQTFYGDWVK | GRAAGTFDS: nd, nd, nd (controls 0 of 9).
GFTLNSYGYS | VIYSDGRRTFYGDSVK | KRVAGTFDS: nd, nd, 2.81 (controls 2 of 9).
GFTLTSYGIQ | VIYSDGRRTFYGDSSK | GRAAGTFDS: nd, nd, nd (controls 0 of 9).
GFTLNSYGIY | VIYTDGRRTFYGDSVK | GRAAGTFAS: nd, 3.09, nd (controls 1 of 9).
GFTLNSYGIS | VIYSDGDNTLYGDSVK | GRAAGTFDS: nd, nd, nd (controls 1 of 9).
GFTLNSYSIS | VKYSDGRRTFYGDSVK | GRAAGKFDS: nd, nd, 2.97 (controls 1 of 9).
GFTLNSYGIS | VIYSSGRRTVYGDSVK | GMAAGTFDS: nd, nd, nd (controls 0 of 9).
GFTLNSWGIS | VIYSDGRRTFYWDSVK | GRASGTFDS: 3.86, nd, nd (controls 1 of 9).
GFTGNSYGIG | VIYSDGRRTFYGDSVK | GRAAGTFDS: nd, 3.66, 3.46 (mean 3.56; controls 1 of 9).
GFTLNSWGIS | VIYSDGRRTFYGDSVK | GAAAKTFDS: nd, nd, nd (controls 0 of 9).
GFTLNSYGIS | VIYSDGRRTFYGDSVK | GRAAGTMDA: 1.18, 2.64, nd (mean 1.91; controls 0 of 9).
GFTLNSYGIS | VIYSDFRHTFYPDSVK | GRAAGTFDS: nd, nd, nd (controls 1 of 9).
ARTLNSYGES | VIYSDGRRTFYGDSVK | GRAAGTFDS: nd, 3.22, nd (controls 4 of 9).
TFTLNSYGIS | VIMEDGRRTFYGDSVK | GRAAGTFDS: nd, nd, nd (controls 1 of 9).
GFTLNSYQIS | VIYSDGRQTFYGDSVK | GRALGTFDS: 4.77, 3.85, 4.62 (mean 4.41; controls 5 of 9).

The last 4 entries again:

The variant GFTLNSYGIS | VIYSDFRHTFYPDSVK | GRAAGTFDS gave nd, nd, nd (controls 1 of 9).
The variant ARTLNSYGES | VIYSDGRRTFYGDSVK | GRAAGTFDS gave nd, 3.22, nd (controls 4 of 9).
The variant TFTLNSYGIS | VIMEDGRRTFYGDSVK | GRAAGTFDS gave nd, nd, nd (controls 1 of 9).
The variant GFTLNSYQIS | VIYSDGRQTFYGDSVK | GRALGTFDS gave 4.77, 3.85, 4.62 (mean 4.41; controls 5 of 9).

In this assay the parent's reference entry averaged 0.65; its copy inside this library read 4.11 (one replicate of three). Three control strains display no target. For library AAYL49, 15% of the pairings with them gave a signal, with a median of 4.06 and one signal in twenty below 2.83, so weak values seen in few replicates may be background. Also given: how often the same scFv was detected with the empty control strains.

From the AlphaSeq antibody data of Engelhart et al. 2022 (doi:10.1038/s41597-022-01779-4), copy in the FLAb collection.